Test results taken from patent publication US20090131503A1, “3,5 - SUBSTITUTED INDOLE COMPOUNDS HAVING NOS AND NOREPINEPHRINE REUPTAKE INHIBITORY ACTIVITY” (priority 2007, published 2009).

What was measured:
[1] = molecular target: T1, Nitric oxide synthase (neuronal, human recombinant) nNOS (Homo sapiens, UniProt P29475); assay: nNOS (human) enzyme assay, [3H]-L-arginine to L-citrulline conversion; type: biochemical; conditions: Table 3
T1 construct: purchased Axxora LLC ALX-201-068

[2] = molecular target: T2, Nitric oxide synthase (endothelial, human recombinant) eNOS (Homo sapiens, UniProt P29474); assay: eNOS (human) enzyme assay, [3H]-L-arginine to L-citrulline conversion; type: biochemical
T2 construct: purchased Axxora LLC ALX-201-070

IC50 ([2]; Table 2, compounds tested as hydrochloride salts) [µM]	SMILES	IC50 [1] [µM]	IC50 ([2]; Table 3) [µM]
	CCNC1CCCC(c2c[nH]c3ccc(NC(=N)c4cccs4)cc23)C1 (racemic) [(±)-9, N-(3-(3-(ethylamino)cyclohexyl)-1H-indol-5-yl)thiophene-2-carboximidamide]	0.264	10.8
	CCNC1CCCC(c2c[nH]c3ccc(NC(=N)c4cccs4)cc23)C1 (racemic) [(±)-10, N-(3-(3-(ethylamino)cyclohexyl)-1H-indol-5-yl)thiophene-2-carboximidamide]	0.735	31.8
25.4	CN[C@H]1CC[C@@H](c2c[nH]c3ccc(NC(=N)c4cccs4)cc32)CC1 [Compound 1a, N-(3-(4-(Methylamino)cyclohexyl)-1H-indol-5-yl)thiophene-2-carboximidamide]		
